A549 tox = A549 cytotoxicity, counter-screen for Nrf2 inhibitors; A549 ARE-Fluc cells, CellTiter-Fluor viability, 18-24 h; Potency, µM (doses to about 46 µM), most hits filed as inhibitors; 0.16% of 390,000 active
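A549 ARE-Fluc cells in 5% FBS OPTI-MEM, 5000 cells/well, rested 2 h then exposed to compounds in concentration-response for 18-24 h at 37 °C. Viability by CellTiter-Fluor fluorescence (Ex 405/Em 525) after 30 min; luciferase luminescence (BugLite, 15 min, RT) read afterwards.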
Mito fusion act = inhibitors of mitochondrial division or activators of mitochondrial fusion. 0.23% of 320,000 active. S. cerevisiae fusion-defective mutant growth rescue, CellTiterGlo 48 h. Potency, µM (top dose mostly 46.1 µM), actives largely listed as activators. AID 485298; also: nearly all actives have a fitted effect of over 45% in size
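S. cerevisiae fusion-defective temperature-sensitive mutants (e.g. fzo1-1, mgm1-5) grown 48 h at 37C in YPEG (ethanol/glycerol non-fermentable) medium with 23 nl compound per well; growth rescue read as CellTiterGlo luminescence.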
GRP78 ERSR act = ER stress response induction in glioma | U87-MG GRP78 promoter luciferase reporter, 16 h | Potency, µM, actives largely listed as activators | 0.02% of 420,000 active | AID 602332; also: series mostly up to about 76 µM; nearly all actives have a fitted effect of over 35% in size
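Stably transfected U87-MG glioma cells carrying a GRP78-based luciferase sensor; 16 h compound incubation. Luminescence end-point read 10 min after Bright-Glo addition at room temperature.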
miR-21 reporter = miR-21 reporter, rising signal; HeLa miR-21 FLuc reporter, luciferase, 48 h; Potency, µM (highest dose often 38.3 µM); 340,000 tested, under 10 active; AID 2288; active = well fitted rising curve with a large enough effect; inconclusive = small, poorly fitted or top-dose-only effect; inactive = no such curve, though single readings can be large or run the other way;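 further: miR-21 action dims this reporter so a rising signal means less miR-21 action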
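HeLa cells endogenously expressing miR-21, stably carrying CMV-driven firefly luciferase with a downstream miR-21 binding site, 2000 cells/well. Titrations up to approximately 40 uM, 48 hours; luciferase luminescence read.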
Nrf2 inh = blocks Nrf2 signaling; AID 504444; 2.1% of 360,000 active; Potency, µM (highest dose often 46 µM), actives largely listed as inhibitors; A549 ARE-Fluc reporter, luciferase luminescence, 18-24 h; also: nearly all actives have a fitted effect of over 60% in size
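Concentration-response testing used A549 ARE_Fluc cells at 5000 cells/well. Following an 18-24 h compound incubation, viability was read by fluorescence (Ex 405/Em 525) and luciferase output by luminescence.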
Nrf2 activator = activators of Nrf2 (ARE) signaling. AREc32 ARE-luciferase reporter (MCF7-derived line), luminescence, 24 h. Potency, µM (doses to about 46.1 µM), most hits filed as activators. 0.31% of 410,000 active; also: nearly all actives have a fitted effect of over 65% in size
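Nrf2 activation is followed as ARE-luciferase induction in the AREc32 line after one day of compound treatment; luminescence is read with Steady-Glo.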
A number is an active result; [ ] = another dose, or the depositor's remark. Compounds with a hit are over-represented: about 2.3% of the library has one in this group of screens. Unless noted, calls follow the shape of the dose curve; as a rule, active = well fitted curve in the direction sought with a large enough effect; inconclusive = small, poorly fitted or top-dose-only effect, or another doubt; inactive = no such curve, though single readings can be large; an effect the other way counts as inactive or inconclusive.

`COc1ccc(CCNC(=O)CC(Cc2ccccc2)C(=O)O)cc1OC` (configuration not stated) gave A549 tox inactive, Mito fusion act inactive, GRP78 ERSR act inactive, miR-21 reporter inactive, Nrf2 inh inactive and Nrf2 activator inactive.
O=C(Nc1cc(C(F)(F)F)ccc1Cl)c1ccc(NC(=O)C(F)(F)F)cc1 was read as A549 tox inactive, Mito fusion act inactive, GRP78 ERSR act inactive, miR-21 reporter inactive, Nrf2 inh inconclusive and Nrf2 activator inactive.
`CCCC(=O)Nc1ccc(C(=O)Nc2cc(C(F)(F)F)ccc2Cl)cc1` gave A549 tox inactive, Mito fusion act inactive, GRP78 ERSR act inactive, miR-21 reporter inactive, Nrf2 inh 10µM and Nrf2 activator inactive.
For N=c1ccn2c(n1)O[C@@H]1[C@H](O)[C@H](CO)O[C@@H]12 the results were GRP78 ERSR act inactive.
N=c1nc2n(cc1F)C1OC(CO)C(O)C1O2 (configuration not stated) was read as A549 tox inconclusive, GRP78 ERSR act inactive, Nrf2 inh 0.13µM and Nrf2 activator inactive.
Screening COc1ccc(OC)c2sc(NC(=O)CCSc3ccccc3)nc12 returned A549 tox inactive, Mito fusion act inactive, GRP78 ERSR act inactive, miR-21 reporter inactive, Nrf2 inh inactive and Nrf2 activator inactive.
COc1ccc(OC)c2sc(NC(=O)CCS(=O)(=O)c3ccccc3)nc12 was read as A549 tox inactive, GRP78 ERSR act inactive, Nrf2 inh inconclusive and Nrf2 activator 5µM.
`COc1cc(OC)cc(-c2nnc(NC(=O)CCS(=O)(=O)c3ccc(F)cc3)o2)c1` gave A549 tox inconclusive, Mito fusion act inactive, GRP78 ERSR act inactive, Nrf2 inh 21µM and Nrf2 activator inconclusive.
For COc1cc(-c2nnc(NC(=O)CCS(=O)(=O)c3ccccc3)o2)cc(OC)c1OC the results were A549 tox inactive, Mito fusion act inactive, GRP78 ERSR act inconclusive, Nrf2 inh inactive and Nrf2 activator 11µM.
COc1cc(OC)cc(-c2nnc(NC(=O)CCS(=O)(=O)c3ccccc3)o2)c1 was read as A549 tox inactive, Mito fusion act inactive, GRP78 ERSR act inactive, Nrf2 inh inactive and Nrf2 activator inactive.
For COc1cc(-c2nnc(NC(=O)CCS(=O)(=O)c3ccc(F)cc3)o2)cc(OC)c1OC the results were A549 tox inactive, Mito fusion act inactive, GRP78 ERSR act inactive, Nrf2 inh inactive and Nrf2 activator inactive.
Screening CCCCC(=O)N1CCN(c2ccc(OC)cc2[N+](=O)[O-])CC1 returned A549 tox inactive, Mito fusion act inactive, GRP78 ERSR act inactive, miR-21 reporter inactive, Nrf2 inh inactive and Nrf2 activator inactive.
Cc1ccc2c(=O)c(C(=O)c3ccccc3)cn(CC(=O)Nc3ccc(C)c(Cl)c3)c2n1 was read as A549 tox inconclusive, GRP78 ERSR act inactive, miR-21 reporter inactive, Nrf2 inh inactive and Nrf2 activator inactive.
CCCCOc1ccc(S(=O)(=O)NNC(=O)c2cc3ccccc3o2)cc1 was read as A549 tox inactive, Mito fusion act 11µM, GRP78 ERSR act inactive, miR-21 reporter inactive, Nrf2 inh inactive and Nrf2 activator inactive.
For CC(C)[C@H](NC(=O)Cc1ccccc1)C(=O)OCc1cc(=O)n2c(n1)sc1ccccc12 the results were A549 tox inactive, Mito fusion act inactive, GRP78 ERSR act inactive, miR-21 reporter inactive, Nrf2 inh inactive and Nrf2 activator inactive[9.22 µM].
CC(C)Oc1ccccc1C1CC(=O)Nc2cc3c(cc21)OCCO3 (configuration not stated) was read as A549 tox inconclusive, Mito fusion act inconclusive, GRP78 ERSR act inactive, miR-21 reporter inactive, Nrf2 inh 8.2µM and Nrf2 activator inactive.
Screening CCOc1cccc(C2CC(=O)Nc3cc4c(cc32)OCCO4)c1 (configuration not stated) returned A549 tox inactive, GRP78 ERSR act inactive, miR-21 reporter inactive, Nrf2 inh 15µM and Nrf2 activator inactive.
Screening Cc1ccc(SCCC(=O)N/N=C/c2ccncc2)cc1 returned A549 tox inactive, Mito fusion act inactive, GRP78 ERSR act inactive, miR-21 reporter inactive, Nrf2 inh 15µM and Nrf2 activator inactive.
`Cc1ccc(/C=N/NC(=O)CCSc2ccccc2)cc1` gave A549 tox inactive, Mito fusion act inactive, GRP78 ERSR act inactive, miR-21 reporter inactive, Nrf2 inh inactive and Nrf2 activator inactive.
For CCOC(=O)c1cccc(NC(=O)C(C)N2C(=O)c3ccccc3C2=O)c1 (configuration not stated) the results were A549 tox inactive, Mito fusion act inactive, GRP78 ERSR act inactive, miR-21 reporter inactive and Nrf2 activator inactive.
O=C(/C=C/c1cccc([N+](=O)[O-])c1)N1CCOCC1 was read as A549 tox inactive, Mito fusion act inactive, GRP78 ERSR act inactive, miR-21 reporter inactive, Nrf2 inh inactive and Nrf2 activator 13µM.
O=C(/C=C/c1cccc([N+](=O)[O-])c1)c1cccs1 was read as A549 tox inactive, Mito fusion act inactive, GRP78 ERSR act inconclusive, miR-21 reporter inactive, Nrf2 inh inconclusive and Nrf2 activator 16µM.
`O=C(C=Cc1cccs1)c1cccs1` gave A549 tox inactive, GRP78 ERSR act inactive, Nrf2 inh inactive and Nrf2 activator 22µM.
Screening O=C(/C=C/c1ccc(O)cc1)c1cccs1 returned GRP78 ERSR act inactive.
`O=C(/C=C/c1cccc([N+](=O)[O-])c1)Nc1ccc(NC(=O)c2cccs2)cc1` gave A549 tox inactive, Mito fusion act inactive, GRP78 ERSR act inactive, miR-21 reporter inactive, Nrf2 inh inactive and Nrf2 activator inactive.
CCOC(=O)c1ccccc1NC(=O)c1cccs1 was read as A549 tox inactive, Mito fusion act inactive, GRP78 ERSR act inactive, miR-21 reporter inactive, Nrf2 inh inactive and Nrf2 activator inactive.
For CCOC(=O)c1ccccc1N/C=C/C(=O)c1cccs1 the results were A549 tox inactive, Mito fusion act inactive, GRP78 ERSR act inactive, miR-21 reporter inactive, Nrf2 inh inconclusive and Nrf2 activator 6.3µM.
Screening CCCCOC(=O)c1ccc(NC(=O)COC(=O)C2CSC3(C)CCC(=O)N23)cc1 (configuration not stated) returned A549 tox inactive, Mito fusion act inactive, GRP78 ERSR act inactive, Nrf2 inh inactive and Nrf2 activator inactive.
Screening O=C(Nc1ccc(Br)cn1)c1cccc(-c2cc3ccccc3oc2=O)c1 returned A549 tox inactive, Mito fusion act inactive, GRP78 ERSR act inactive, miR-21 reporter inactive, Nrf2 inh inconclusive and Nrf2 activator inactive.
O=C(/C=C/Nc1ccc(F)cc1F)c1cccs1 was read as A549 tox inactive, Mito fusion act inactive, GRP78 ERSR act inactive, miR-21 reporter inactive, Nrf2 inh inconclusive and Nrf2 activator inconclusive.

Bioassay records from PubChem.
